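Five concentrations, 48 hours, 96-well plates. TGI: total growth inhibition.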
Assays:
Assay in all cases: growth of human tumour cells (NCI), 48 h
M14 melanoma = tested on: M14 melanoma
A498 renal = tested on: A498 renal
HT29 colon = tested on: HT29 colon
COLO 205 colon = tested on: COLO 205 colon
MDA-MB-231 breast = tested on: MDA-MB-231 breast
MOLT-4 leukemia = tested on: MOLT-4 leukemia
786-0 renal = tested on: 786-0 renal
SNB-75 CNS = tested on: SNB-75 CNS
UO-31 renal = tested on: UO-31 renal
SF-539 CNS = tested on: SF-539 CNS
OVCAR-8 ovarian = tested on: OVCAR-8 ovarian
A549 NSCLC = tested on: A549 NSCLC
ACHN renal = tested on: ACHN renal
UACC-257 melanoma = tested on: UACC-257 melanoma
HCC-2998 colon = tested on: HCC-2998 colon
HS 578T breast = tested on: HS 578T breast
LOX IMVI melanoma = tested on: LOX IMVI melanoma
NCI/ADR-RES ovarian = tested on: NCI/ADR-RES ovarian
OVCAR-3 ovarian = tested on: OVCAR-3 ovarian
T-47D breast = tested on: T-47D breast
SF-268 CNS = tested on: SF-268 CNS
IGROV1 ovarian = tested on: IGROV1 ovarian
HOP-92 NSCLC = tested on: HOP-92 NSCLC
SF-295 CNS = tested on: SF-295 CNS
PC-3 prostate = tested on: PC-3 prostate
DU-145 prostate = tested on: DU-145 prostate
SN12C renal = tested on: SN12C renal
SK-MEL-28 melanoma = tested on: SK-MEL-28 melanoma
CCRF-CEM leukemia = tested on: CCRF-CEM leukemia
NCI-H23 lung = tested on: NCI-H23 lung
SK-MEL-2 melanoma = tested on: SK-MEL-2 melanoma
EKVX NSCLC = tested on: EKVX NSCLC
UACC-62 melanoma = tested on: UACC-62 melanoma
NCI-H460 lung = tested on: NCI-H460 lung
RPMI-8226 leukemia = tested on: RPMI-8226 leukemia
MALME-3M melanoma = tested on: MALME-3M melanoma
HCT-15 colon = tested on: HCT-15 colon
NCI-H322M lung = tested on: NCI-H322M lung
SW-620 colon = tested on: SW-620 colon
SR leukemia = tested on: SR leukemia
KM12 colon = tested on: KM12 colon
OVCAR-4 ovarian = tested on: OVCAR-4 ovarian
HCT-116 colon = tested on: HCT-116 colon
NCI-H522 lung = tested on: NCI-H522 lung
HL-60(TB) leukemia = tested on: HL-60(TB) leukemia
K-562 leukemia = tested on: K-562 leukemia
MCF7 breast = tested on: MCF7 breast
MDA-N = tested on: MDA-N
SNB-19 CNS = tested on: SNB-19 CNS
OVCAR-5 ovarian = tested on: OVCAR-5 ovarian
U251 CNS = tested on: U251 CNS
SK-MEL-5 melanoma = tested on: SK-MEL-5 melanoma
NCI-H226 lung = tested on: NCI-H226 lung
MDA-MB-435 = tested on: MDA-MB-435
CAKI-1 renal = tested on: CAKI-1 renal
TK-10 renal = tested on: TK-10 renal
SK-OV-3 ovarian = tested on: SK-OV-3 ovarian
RXF 393 renal = tested on: RXF 393 renal

SMILES: NP(=O)(OCc1ccc([N+](=O)[O-])o1)N(CCBr)CCBr (stereo not drawn)
- TGI (M14 melanoma): 8.79 µM
- TGI (A498 renal): 3.14 µM
- TGI (HT29 colon): 4 µM
- TGI (COLO 205 colon): 10.7 µM
- TGI (MDA-MB-231 breast): 29.4 µM
- TGI (MOLT-4 leukemia): 1.26 µM
- TGI (786-0 renal): 3.09 µM
- TGI (SNB-75 CNS): 3.06 µM
- TGI (UO-31 renal): 2.54 µM
- TGI (SF-539 CNS): 5.85 µM
- TGI (OVCAR-8 ovarian): 2.69 µM
- TGI (A549 NSCLC): 6.32 µM
- TGI (ACHN renal): 3.64 µM
- TGI (UACC-257 melanoma): 4.42 µM
- TGI (HCC-2998 colon): 2.04 µM
- TGI (HS 578T breast): 17.2 µM
- TGI (LOX IMVI melanoma): 3.08 µM
- TGI (NCI/ADR-RES ovarian): 13.3 µM
- TGI (OVCAR-3 ovarian): 7.27 µM
- TGI (T-47D breast): 21.4 µM
- TGI (SF-268 CNS): 6.3 µM
- TGI (IGROV1 ovarian): 2.9 µM
- TGI (HOP-92 NSCLC): 9.33 µM
- TGI (SF-295 CNS): 8.13 µM
- TGI (PC-3 prostate): 15.8 µM
- TGI (DU-145 prostate): 13.9 µM
- TGI (SN12C renal): 17.7 µM
- TGI (SK-MEL-28 melanoma): 29.3 µM
- TGI (CCRF-CEM leukemia): 10.3 µM
- TGI (NCI-H23 lung): 2.15 µM
- TGI (SK-MEL-2 melanoma): 12 µM
- TGI (EKVX NSCLC): 9.08 µM
- TGI (UACC-62 melanoma): 2.38 µM
- TGI (NCI-H460 lung): 1.72 µM
- TGI (RPMI-8226 leukemia): 24.3 µM
- TGI (MALME-3M melanoma): 2.52 µM
- TGI (HCT-15 colon): 2.74 µM
- TGI (NCI-H322M lung): 30.4 µM
- TGI (SW-620 colon): 23.6 µM
- TGI (SR leukemia): 0.362 µM
- TGI (KM12 colon): 4.84 µM
- TGI (OVCAR-4 ovarian): 3.98 µM
- TGI (HCT-116 colon): 10.3 µM
- TGI (NCI-H522 lung): 2.1 µM
- TGI (HL-60(TB) leukemia): 0.201 µM
- TGI (K-562 leukemia): 33.2 µM
- TGI (MCF7 breast): 3.95 µM
- TGI (MDA-N): 11.4 µM
- TGI (SNB-19 CNS): 20.8 µM
- TGI (OVCAR-5 ovarian): 7.35 µM
- TGI (U251 CNS): 7.58 µM
- TGI (SK-MEL-5 melanoma): 2.88 µM
- TGI (NCI-H226 lung): 8.23 µM
- TGI (MDA-MB-435): 6.85 µM
- TGI (CAKI-1 renal): 2.66 µM
- TGI (TK-10 renal): 14.2 µM
- TGI (SK-OV-3 ovarian): 20.3 µM
- TGI (RXF 393 renal): 3.96 µM

Reference: PubChem BioAssay (NCI)
